The chains behind the UniProt entries cited, without tags or fusion partners.
UniProt P11166, whole entry: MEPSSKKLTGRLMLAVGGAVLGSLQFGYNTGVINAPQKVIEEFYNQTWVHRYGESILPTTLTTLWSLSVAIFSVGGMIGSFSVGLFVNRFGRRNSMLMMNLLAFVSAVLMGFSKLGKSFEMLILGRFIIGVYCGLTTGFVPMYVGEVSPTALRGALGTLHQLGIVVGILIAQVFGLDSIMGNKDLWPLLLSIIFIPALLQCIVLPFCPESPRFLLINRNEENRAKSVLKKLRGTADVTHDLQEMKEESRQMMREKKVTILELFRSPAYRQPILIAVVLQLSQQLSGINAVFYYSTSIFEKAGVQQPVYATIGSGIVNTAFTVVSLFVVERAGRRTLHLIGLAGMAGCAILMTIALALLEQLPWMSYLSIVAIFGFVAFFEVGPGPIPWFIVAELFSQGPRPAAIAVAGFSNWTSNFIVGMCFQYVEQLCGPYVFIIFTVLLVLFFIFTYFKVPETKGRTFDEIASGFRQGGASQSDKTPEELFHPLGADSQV
UniProt P11168, whole entry: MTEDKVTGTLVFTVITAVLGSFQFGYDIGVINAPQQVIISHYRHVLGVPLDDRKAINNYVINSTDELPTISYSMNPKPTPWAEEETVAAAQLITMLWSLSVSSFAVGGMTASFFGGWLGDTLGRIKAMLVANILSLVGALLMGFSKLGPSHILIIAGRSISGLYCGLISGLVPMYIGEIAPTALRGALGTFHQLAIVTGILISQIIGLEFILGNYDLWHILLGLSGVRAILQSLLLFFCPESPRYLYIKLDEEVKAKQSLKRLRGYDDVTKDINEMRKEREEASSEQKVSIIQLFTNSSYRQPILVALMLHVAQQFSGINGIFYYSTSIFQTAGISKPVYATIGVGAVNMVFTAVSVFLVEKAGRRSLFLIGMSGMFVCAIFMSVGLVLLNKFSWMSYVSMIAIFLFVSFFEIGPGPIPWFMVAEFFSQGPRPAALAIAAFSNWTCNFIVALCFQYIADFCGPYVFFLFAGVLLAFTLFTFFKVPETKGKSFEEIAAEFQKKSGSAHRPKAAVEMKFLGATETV
UniProt P11169, whole entry: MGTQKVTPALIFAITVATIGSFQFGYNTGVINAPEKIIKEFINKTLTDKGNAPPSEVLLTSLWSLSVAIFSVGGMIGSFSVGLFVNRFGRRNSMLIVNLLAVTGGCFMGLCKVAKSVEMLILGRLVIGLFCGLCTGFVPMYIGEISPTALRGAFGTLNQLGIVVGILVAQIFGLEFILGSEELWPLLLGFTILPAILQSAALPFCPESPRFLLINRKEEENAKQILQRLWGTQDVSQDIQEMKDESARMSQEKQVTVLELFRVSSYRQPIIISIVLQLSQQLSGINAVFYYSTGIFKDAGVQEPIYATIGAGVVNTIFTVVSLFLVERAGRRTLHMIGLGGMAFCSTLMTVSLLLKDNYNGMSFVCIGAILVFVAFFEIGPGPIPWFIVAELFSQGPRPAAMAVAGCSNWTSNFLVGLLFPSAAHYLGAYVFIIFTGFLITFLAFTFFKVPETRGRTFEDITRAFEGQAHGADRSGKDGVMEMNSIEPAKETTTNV
UniProt P14672, whole entry: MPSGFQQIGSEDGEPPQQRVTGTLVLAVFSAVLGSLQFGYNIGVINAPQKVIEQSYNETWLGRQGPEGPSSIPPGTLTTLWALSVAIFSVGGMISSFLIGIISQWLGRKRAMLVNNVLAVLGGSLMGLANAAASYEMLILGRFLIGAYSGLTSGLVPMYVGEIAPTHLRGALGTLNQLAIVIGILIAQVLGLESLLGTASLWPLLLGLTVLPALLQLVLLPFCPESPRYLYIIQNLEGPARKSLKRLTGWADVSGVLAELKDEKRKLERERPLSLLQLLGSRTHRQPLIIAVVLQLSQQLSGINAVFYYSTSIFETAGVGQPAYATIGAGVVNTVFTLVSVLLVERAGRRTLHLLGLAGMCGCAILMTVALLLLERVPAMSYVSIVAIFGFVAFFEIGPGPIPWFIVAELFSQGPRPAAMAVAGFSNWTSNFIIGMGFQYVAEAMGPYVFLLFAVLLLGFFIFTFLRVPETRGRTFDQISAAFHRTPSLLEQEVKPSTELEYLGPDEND

According to US20160120863A1, “SLC2A TRANSPORTER INHIBITORS” (IOMET PHARMA LTD., priority 2013, published 2016):

Experiments:
human GLUT1 = human GLUT1 (Homo sapiens, UniProt P11166); experiment: [3H]-deoxy-D-glucose uptake assay, GLUT1; format: cell-based; conditions: [3H]-deoxy-D-glucose uptake in HEK293 cells stably expressing human GLUT1
human GLUT2 = human GLUT2 (Homo sapiens, UniProt P11168); experiment: [3H]-deoxy-D-glucose uptake assay, GLUT2; conditions: [3H]-deoxy-D-glucose uptake in HEK293 cells stably expressing human GLUT2
human GLUT3 = human GLUT3 (Homo sapiens, UniProt P11169); experiment: [3H]-deoxy-D-glucose uptake assay, GLUT3; conditions: [3H]-deoxy-D-glucose uptake in HEK293 cells stably expressing human GLUT3
Method: (§1) HEK293 cells were engineered to stably express either human GLUT1, GLUT2, GLUt3 or GLUT4 by transfection with the pReceiver-Lv105 plasmid, containing either hGLUT1, hGLUT2, hGLUT3, or hGLUT4 gene constructs with lipofectamine 2000, hGLUT1- hGLUT2- hGLUT3- or hGLUT4-overexpressing polyclonal populations were isolated under purinomycin selective pressure (1 μg/ml) and maintained in Dulbecco's modified Eagle's medium supplemented with 1 μg/ml purinomycin+10% foetal bovine serum (FBS).
(§2) 60,000 cells per well were seeded overnight into poly-D-lysine coasted 96-well plates. Following media removal, cells were washed twice in warm glucose-free uptake buffer (25 mM HEPES/KOH pH 7.4, 125 mM NaCl, 4.8 mM KCl, 1.2 mM MgSO4, 1.2 mM CaCl2, 1.2 mM KH2PO4). 90 μl of test compounds were added in glucose-free uptake buffer and cells were incubated at 37° C. for 30 min. 10 μl of [3H]-deoxy-D-glucose (0.25 μCi, 125 μM final assay concentration) was then added per well in glucose-free uptake buffer and uptake was allowed to proceed at 37° C. for 30 min.
(§3) Cells were then washed twice with ice-cold PBS and 100 μl of Microscint-20 was added per well. Glucose uptake was quantified with a scintillation counter. The half maximal inhibitory concentration (IC50) (a measure of the effectiveness of the test compound in inhibiting glucose uptake) was determined.

human GLUT4 = human GLUT4 (Homo sapiens, UniProt P14672); experiment: [3H]-deoxy-D-glucose uptake assay, GLUT4; conditions: [3H]-deoxy-D-glucose uptake in HEK293 cells stably expressing human GLUT4
Method: as §1, §2, §3

N#Cc1cccnc1-c1ccc2nc(-c3ccc(Cl)cc3)c(CN3CCOCC3)n2c1
GLUT1 pIC50 (human GLUT1): +++ (pIC50 ≧ 6.00) | GLUT2 pIC50 (human GLUT2): ++ (pIC50 5.00-5.99)

FC(F)(F)c1ccc2nc(-c3ccc(Cl)cc3)c(CN3CCOCC3)n2c1
GLUT1 pIC50 (human GLUT1): ++ (pIC50 5.00-5.99)

O=C(c1ccncn1)N1CCN(Cc2c(-c3ccc(Cl)cc3)nc3ccc(-c4ccccc4)cn23)CC1
GLUT1 pIC50 (human GLUT1): +++ (pIC50 ≧ 6.00)

OCc1nc2ccc(-c3ccccc3)cn2c1CN1CCOCC1
GLUT1 pIC50 (human GLUT1): +− (pIC50 < 4.00)

Clc1ccc(-c2nc3ccc(-c4ccccc4)cn3c2CN2CCOCC2)c(Cl)c1
GLUT3 pIC50 (human GLUT3): +++ (pIC50 ≧ 6.00) | GLUT1 pIC50 (human GLUT1): +++ (pIC50 ≧ 6.00) | GLUT4 pIC50 (human GLUT4): +++ (pIC50 ≧ 6.00)

FC(F)(F)c1ccccc1-c1ccc2nc(-c3ccc(Cl)cc3)c(CN3CCOCC3)n2c1
GLUT1 pIC50 (human GLUT1): ++ (pIC50 5.00-5.99)

O=C1CN(Cc2c(-c3ccc(Cl)cc3Cl)nc3ccc(-c4ncon4)cn23)CCN1
GLUT1 pIC50 (human GLUT1): +++ (pIC50 ≧ 6.00) | GLUT2 pIC50 (human GLUT2): +++ (pIC50 ≧ 6.00)

O=C(c1ccc(F)cc1)N1CCN(Cc2c(-c3ccc(Cl)cc3)nc3cnc(C4CC4)cn23)CC1
GLUT1 pIC50 (human GLUT1): +++ (pIC50 ≧ 6.00)

CN(c1ccc2nc(-c3ccc(Cl)cc3Cl)c(CN3CCN(C(=O)CO)CC3)n2c1)S(C)(=O)=O
GLUT3 pIC50 (human GLUT3): +++ (pIC50 ≧ 6.00) | GLUT1 pIC50 (human GLUT1): +++ (pIC50 ≧ 6.00) | GLUT4 pIC50 (human GLUT4): +++ (pIC50 ≧ 6.00) | GLUT2 pIC50 (human GLUT2): +++ (pIC50 ≧ 6.00)

Clc1ccc(-c2nc3ccc(-c4ncccc4Cl)cn3c2CN2CCOCC2)cc1
GLUT1 pIC50 (human GLUT1): +++ (pIC50 ≧ 6.00)

COCC(=O)N1CCN(Cc2c(-c3ccc(C)cc3)nc3ccc(-c4ccccc4)cn23)CC1
GLUT1 pIC50 (human GLUT1): +++ (pIC50 ≧ 6.00)

Clc1ccc(-c2nc3ccc(-c4ccccc4)cn3c2CN2CCOCC2)nc1
GLUT1 pIC50 (human GLUT1): +− (pIC50 < 4.00) | GLUT2 pIC50 (human GLUT2): +− (pIC50 < 4.00)

O=C1CCC2CN(Cc3c(-c4ccc(Cl)cc4)nc4cnc(C5CC5)cn34)CCN12 (stereo not drawn)
GLUT3 pIC50 (human GLUT3): +++ (pIC50 ≧ 6.00) | GLUT1 pIC50 (human GLUT1): +++ (pIC50 ≧ 6.00) | GLUT4 pIC50 (human GLUT4): +++ (pIC50 ≧ 6.00) | GLUT2 pIC50 (human GLUT2): +++ (pIC50 ≧ 6.00)

CS(=O)(=O)Nc1ccc2nc(-c3ccc(Cl)cc3Cl)c(CN3CCN(C(=O)C4CCOCC4)CC3)n2c1
GLUT3 pIC50 (human GLUT3): +++ (pIC50 ≧ 6.00) | GLUT1 pIC50 (human GLUT1): +++ (pIC50 ≧ 6.00) | GLUT4 pIC50 (human GLUT4): +++ (pIC50 ≧ 6.00) | GLUT2 pIC50 (human GLUT2): ++ (pIC50 5.00-5.99)

O=C(C1CCOCC1)N1CCN(Cc2c(-c3ccc(Cl)cc3)nc3ccc(C4CC4)cn23)CC1
GLUT1 pIC50 (human GLUT1): +++ (pIC50 ≧ 6.00) | GLUT2 pIC50 (human GLUT2): ++ (pIC50 5.00-5.99)

COCC(=O)N1CCN(Cc2c(-c3ccc(Cl)cc3)nc3ccc(N4CCCS4(=O)=O)cn23)CC1
GLUT1 pIC50 (human GLUT1): +++ (pIC50 ≧ 6.00) | GLUT2 pIC50 (human GLUT2): +++ (pIC50 ≧ 6.00)

Clc1ccc(-c2nc3ccc(-c4ccccc4)nn3c2CN2CCOCC2)cc1
GLUT1 pIC50 (human GLUT1): +− (pIC50 < 4.00)

COCC(=O)N1CCN(Cc2c(-c3ccc(Cl)cc3Cl)nc3ccc(N(C)S(C)(=O)=O)cn23)CC1
GLUT3 pIC50 (human GLUT3): +++ (pIC50 ≧ 6.00) | GLUT1 pIC50 (human GLUT1): +++ (pIC50 ≧ 6.00) | GLUT4 pIC50 (human GLUT4): +++ (pIC50 ≧ 6.00) | GLUT2 pIC50 (human GLUT2): ++ (pIC50 5.00-5.99)

O=C(c1ccnnc1)N1CCN(Cc2c(-c3ccc(Cl)cc3)nc3ccc(C4CC4)cn23)CC1
GLUT1 pIC50 (human GLUT1): +++ (pIC50 ≧ 6.00)

COc1cccc(-c2nc3ccc(-c4ccccc4)cn3c2CN2CCN(C(=O)COc3ccc(Cl)cc3)CC2)c1
GLUT1 pIC50 (human GLUT1): + (pIC50 4.00-4.99)
